Measured values from paper PMC11167723.
One block for each substance: values may come before it.

By UniProt entry, the sequences of proteins in these tests, tags left out. Residues count along the entry.
UniProt O14744, 2-637: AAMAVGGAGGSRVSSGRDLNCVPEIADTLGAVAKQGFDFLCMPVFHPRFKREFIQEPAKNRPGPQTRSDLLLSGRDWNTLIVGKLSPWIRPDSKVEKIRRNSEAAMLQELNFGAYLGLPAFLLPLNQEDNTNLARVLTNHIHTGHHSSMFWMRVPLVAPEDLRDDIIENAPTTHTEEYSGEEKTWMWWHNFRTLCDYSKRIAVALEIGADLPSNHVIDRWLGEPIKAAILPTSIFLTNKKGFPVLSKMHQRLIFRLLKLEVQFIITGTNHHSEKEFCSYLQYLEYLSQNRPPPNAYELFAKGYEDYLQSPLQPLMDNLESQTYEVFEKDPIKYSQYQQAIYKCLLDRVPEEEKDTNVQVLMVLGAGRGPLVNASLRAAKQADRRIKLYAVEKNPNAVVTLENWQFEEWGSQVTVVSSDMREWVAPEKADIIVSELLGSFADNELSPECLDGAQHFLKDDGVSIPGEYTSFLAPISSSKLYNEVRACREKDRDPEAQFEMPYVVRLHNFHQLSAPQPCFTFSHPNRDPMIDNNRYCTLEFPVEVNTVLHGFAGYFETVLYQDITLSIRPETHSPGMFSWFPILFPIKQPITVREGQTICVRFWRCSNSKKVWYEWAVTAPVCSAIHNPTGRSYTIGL
UniProt O14744, whole entry R49A: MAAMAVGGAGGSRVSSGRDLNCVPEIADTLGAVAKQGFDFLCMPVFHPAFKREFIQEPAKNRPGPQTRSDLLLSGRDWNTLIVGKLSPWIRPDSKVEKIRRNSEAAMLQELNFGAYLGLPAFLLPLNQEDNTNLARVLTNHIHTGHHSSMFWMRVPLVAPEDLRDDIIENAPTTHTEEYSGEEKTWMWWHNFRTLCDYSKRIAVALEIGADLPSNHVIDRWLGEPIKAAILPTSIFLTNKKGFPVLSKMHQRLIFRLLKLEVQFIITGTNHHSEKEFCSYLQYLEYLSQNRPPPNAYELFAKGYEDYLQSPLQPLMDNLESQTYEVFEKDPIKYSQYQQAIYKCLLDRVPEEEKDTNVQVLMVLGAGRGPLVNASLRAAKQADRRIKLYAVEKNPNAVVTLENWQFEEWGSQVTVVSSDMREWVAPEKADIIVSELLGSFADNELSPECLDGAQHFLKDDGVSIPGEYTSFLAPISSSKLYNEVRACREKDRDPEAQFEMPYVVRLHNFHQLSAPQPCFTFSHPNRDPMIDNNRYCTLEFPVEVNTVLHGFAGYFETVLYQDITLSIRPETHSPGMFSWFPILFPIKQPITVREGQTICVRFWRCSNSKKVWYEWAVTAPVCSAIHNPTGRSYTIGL
UniProt O14744, whole entry R49D: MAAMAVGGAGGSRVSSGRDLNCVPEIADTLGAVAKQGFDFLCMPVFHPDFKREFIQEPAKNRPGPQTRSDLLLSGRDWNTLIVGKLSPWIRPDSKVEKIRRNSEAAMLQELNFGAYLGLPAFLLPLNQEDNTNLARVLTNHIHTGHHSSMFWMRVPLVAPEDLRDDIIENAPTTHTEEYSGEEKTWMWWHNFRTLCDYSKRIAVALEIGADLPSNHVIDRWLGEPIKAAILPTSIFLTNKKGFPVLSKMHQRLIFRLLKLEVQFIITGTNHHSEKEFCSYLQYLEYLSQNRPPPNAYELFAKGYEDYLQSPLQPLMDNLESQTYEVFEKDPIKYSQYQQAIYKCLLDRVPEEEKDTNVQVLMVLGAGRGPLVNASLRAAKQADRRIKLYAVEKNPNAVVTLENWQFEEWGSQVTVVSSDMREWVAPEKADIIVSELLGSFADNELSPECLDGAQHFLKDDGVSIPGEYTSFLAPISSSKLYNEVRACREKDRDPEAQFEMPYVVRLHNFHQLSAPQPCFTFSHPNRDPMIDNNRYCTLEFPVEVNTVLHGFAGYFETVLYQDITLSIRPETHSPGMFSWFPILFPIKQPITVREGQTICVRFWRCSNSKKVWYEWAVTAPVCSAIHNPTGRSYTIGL
UniProt O14744, whole entry R49G: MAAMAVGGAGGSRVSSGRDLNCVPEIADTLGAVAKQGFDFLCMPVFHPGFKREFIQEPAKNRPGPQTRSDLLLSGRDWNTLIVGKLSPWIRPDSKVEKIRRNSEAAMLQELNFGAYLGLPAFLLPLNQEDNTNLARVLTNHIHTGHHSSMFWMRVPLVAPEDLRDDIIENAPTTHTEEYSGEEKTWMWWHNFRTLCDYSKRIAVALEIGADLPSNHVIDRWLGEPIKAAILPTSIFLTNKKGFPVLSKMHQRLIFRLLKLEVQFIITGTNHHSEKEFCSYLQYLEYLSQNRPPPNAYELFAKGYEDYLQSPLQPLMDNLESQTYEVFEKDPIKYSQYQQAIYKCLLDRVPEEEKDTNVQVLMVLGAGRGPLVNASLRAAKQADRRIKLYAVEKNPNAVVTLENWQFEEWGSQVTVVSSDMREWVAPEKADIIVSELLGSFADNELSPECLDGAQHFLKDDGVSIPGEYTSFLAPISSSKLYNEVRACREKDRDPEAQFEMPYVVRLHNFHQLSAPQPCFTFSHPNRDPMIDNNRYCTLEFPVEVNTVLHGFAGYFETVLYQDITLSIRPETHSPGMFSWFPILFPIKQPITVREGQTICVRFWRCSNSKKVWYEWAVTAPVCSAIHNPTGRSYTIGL

Columns and labels:
Assay in all cases: split reporter
[1] = biological target: Myc-VN-PRMT5 (wild type) BiFC fusion (UniProt O14744)
[2] = biological target: Myc-VN-PRMT5 R49A BiFC fusion (UniProt O14744)
[3] = biological target: Myc-VN-PRMT5 R49D BiFC fusion (UniProt O14744)
[4] = biological target: Myc-VN-PRMT5 R49G BiFC fusion (UniProt O14744)

decrease of interaction (BiFC efficiency) against wild type [1]: > 70%
Substance: HA-VC-MEP50 D99A BiFC fusion (from UniProt Q9BQA1 2-342) (natural protein)

decrease of interaction (BiFC efficiency) against wild type [1]: > 70%
Substance: HA-VC-MEP50 D99R BiFC fusion (from UniProt Q9BQA1 2-342) (natural protein)

% inhibition of BiFC efficiency by compound 8 at 0.25 uM [1]: 41% | % inhibition of BiFC efficiency by compounds 12, 4, 3 and 10 at 10 uM [1]: 24 to 35% | decrease of interaction (BiFC efficiency) against wild type [2]: > 70% | decrease of interaction (BiFC efficiency) against wild type [3]: > 70% | decrease of interaction (BiFC efficiency) against wild type [4]: > 70%
Substance: HA-VC-MEP50 (wild type) BiFC fusion (from UniProt Q9BQA1 2-342) (natural protein)

decrease of interaction (BiFC efficiency) against wild type [1]: 50%
Substance: HA-VC-MEP50 ΔS50-W54 deletion mutant BiFC fusion (from UniProt Q9BQA1 2-342) (natural protein)

decrease of interaction (BiFC efficiency) against wild type [1]: > 70%
Substance: HA-VC-MEP50 D99G BiFC fusion (from UniProt Q9BQA1 2-342) (natural protein)
